Target: mGluR1 (Homo sapiens, UniProt Q13255)
Test: Binding assay mGluR1
Conditions: reference compound

Amino acid sequences for entries named in this document (tags omitted). Residues count along the entry.
UniProt Q13255, 19-1194: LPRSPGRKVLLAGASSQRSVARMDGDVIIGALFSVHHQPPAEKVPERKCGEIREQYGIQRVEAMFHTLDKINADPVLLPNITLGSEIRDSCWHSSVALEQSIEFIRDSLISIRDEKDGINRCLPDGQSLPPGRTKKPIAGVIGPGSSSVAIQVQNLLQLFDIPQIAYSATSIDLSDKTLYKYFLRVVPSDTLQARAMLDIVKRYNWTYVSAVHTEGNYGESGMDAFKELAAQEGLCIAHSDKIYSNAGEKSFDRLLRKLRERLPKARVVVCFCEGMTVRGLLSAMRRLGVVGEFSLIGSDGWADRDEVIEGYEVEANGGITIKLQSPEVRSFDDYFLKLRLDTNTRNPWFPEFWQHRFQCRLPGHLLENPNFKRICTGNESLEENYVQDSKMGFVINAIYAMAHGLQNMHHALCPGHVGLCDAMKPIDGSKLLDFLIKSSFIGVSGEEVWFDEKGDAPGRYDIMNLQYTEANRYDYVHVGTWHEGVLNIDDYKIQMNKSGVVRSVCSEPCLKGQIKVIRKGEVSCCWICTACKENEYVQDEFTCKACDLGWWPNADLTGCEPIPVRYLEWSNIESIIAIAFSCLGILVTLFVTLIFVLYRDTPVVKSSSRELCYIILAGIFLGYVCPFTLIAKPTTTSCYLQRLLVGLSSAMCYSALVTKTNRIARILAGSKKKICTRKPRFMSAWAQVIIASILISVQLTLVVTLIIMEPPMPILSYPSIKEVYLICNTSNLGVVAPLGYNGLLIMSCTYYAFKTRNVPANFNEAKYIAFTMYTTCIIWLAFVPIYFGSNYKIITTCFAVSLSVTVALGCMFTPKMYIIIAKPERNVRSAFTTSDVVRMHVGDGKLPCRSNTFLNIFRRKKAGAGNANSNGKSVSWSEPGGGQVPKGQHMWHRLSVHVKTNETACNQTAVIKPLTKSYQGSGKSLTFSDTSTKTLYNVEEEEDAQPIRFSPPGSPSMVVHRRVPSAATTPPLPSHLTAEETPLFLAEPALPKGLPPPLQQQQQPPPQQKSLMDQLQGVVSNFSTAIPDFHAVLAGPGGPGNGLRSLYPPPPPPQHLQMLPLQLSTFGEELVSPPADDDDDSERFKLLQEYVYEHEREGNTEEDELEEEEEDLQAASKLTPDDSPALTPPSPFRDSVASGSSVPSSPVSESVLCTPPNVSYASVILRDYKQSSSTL

N[C@@H](Cn1oc(=O)[nH]c1=O)C(=O)O [L-Quisqualate, reference compound]
IC50: 160 nM | Ki: 140 nM

Reference: publication PMC7176092, “Development of the first in vivo GPR17 ligand through an iterative drug discovery pipeline: A novel disease-modifying strategy for multiple sclerosis” (PLoS ONE, 2020)
